Yeast mating assay B: variants of the scFv Ab-14

From the AlphaSeq antibody data of Li et al. 2023 (doi:10.1038/s41467-023-39022-2), copy in the FLAb collection.

Target peptide (SARS-CoV-2 spike, HR2 region): PDVDLGDISGINAS

Ab-14 is the parent antibody, in scFv form: VH, then a 15-residue (Gly4Ser)3 linker, then VL. The light chain is unchanged in all variants.
VH: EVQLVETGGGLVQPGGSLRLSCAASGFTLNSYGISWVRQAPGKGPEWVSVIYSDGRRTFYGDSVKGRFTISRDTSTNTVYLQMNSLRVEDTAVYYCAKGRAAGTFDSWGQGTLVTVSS
VL: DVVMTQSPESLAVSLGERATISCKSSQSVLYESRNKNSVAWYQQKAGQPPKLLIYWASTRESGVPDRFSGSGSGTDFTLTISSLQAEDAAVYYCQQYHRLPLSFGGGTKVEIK

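These sequences belong to a second round, designed from the earlier measurements on random variants of the parent. Their group label is 14H_Rand (Rand: our label for a block that the file lists under HC and that is probably the random mutants of the ten best first-round binders). AlphaSeq pools MATa yeast showing the antibodies with MATalpha yeast showing the peptide. After mating in shaken culture at 30 °C for 16 h, diploids were selected and their barcode pairs sequenced. Read counts were normalised to the haploid input and turned into Kd by a linear fit to BCL2-family pairs of known affinity, for each replicate. There are six technical replicates.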

Substitutions are numbered in sequence along the VH above, starting at 1 (not Kabat).
Affinities are written as log10 Kd with Kd in nM; a lower number is a better binder.
Replicates are averaged; those with no signal do not enter the mean.
An entry "n.d." has no value in the source: the pair was not observed among the diploids in that replicate. This suggests poor binding but is not conclusive.

changes,"log10 Kd, replicates","mean, log10 nM",empty controls
N30V+F105A+D106L,n.d. / n.d. / n.d. / n.d. / n.d. / n.d.,n.d.,0/18
S53A+G55Y+F59R+D62S+F105N+D106K,n.d. / n.d. / n.d. / n.d. / n.d. / n.d.,n.d.,0/18
T28D+G33W+D62G+T104W+D106N,n.d. / n.d. / n.d. / n.d. / n.d. / n.d.,n.d.,0/18
S31H+G61T+V64S+A101F+D106Y,n.d. / n.d. / n.d. / n.d. / n.d. / n.d.,n.d.,0/18
S31E+G61T+A101F+F105R,n.d. / n.d. / n.d. / n.d. / n.d. / n.d.,n.d.,0/18
N30D+T104G+F105A+D106L,n.d. / n.d. / n.d. / n.d. / n.d. / n.d.,n.d.,0/18
S31E+S35V+G55K+F59H+G61T+A101F+G103N,n.d. / n.d. / n.d. / n.d. / n.d. / n.d.,n.d.,0/18
S31Q+F59Q+G61S+T104F,n.d. / n.d. / n.d. / n.d. / n.d. / n.d.,n.d.,0/18
F27D+S31E+Y60S+G61T+A101F,n.d. / n.d. / n.d. / n.d. / n.d. / n.d.,n.d.,0/18
S53A+G55T+F105N+D106K,n.d. / n.d. / n.d. / n.d. / n.d. / n.d.,n.d.,1/18 (1.64)
T28F+S31E+D62P+G103V+S107Q,n.d. / n.d. / n.d. / n.d. / n.d. / 1.92,1.92,0/18
F27H+S31E+Y52P+G103V+S107Q,n.d. / n.d. / n.d. / n.d. / n.d. / n.d.,n.d.,0/18
T28D+S35C+S53V+T104W+D106N,n.d. / n.d. / n.d. / n.d. / n.d. / n.d.,n.d.,0/18
N30D+G33R+G55L+F105A+D106L,n.d. / n.d. / n.d. / n.d. / n.d. / n.d.,n.d.,0/18
S31Q+Y32H+G61S+V64D+T104F,n.d. / n.d. / n.d. / n.d. / n.d. / n.d.,n.d.,0/18
Y52D+G61D+R100Q+A101L+G103N,n.d. / n.d. / n.d. / n.d. / n.d. / n.d.,n.d.,0/18
S31E+Y32A+G33I+S53W+G55K+R57Q+D62E+S63I+G99R+G103V+S107Q,n.d. / n.d. / n.d. / n.d. / n.d. / n.d.,n.d.,0/18
T28D+S31L+I51L+T104W+D106N,n.d. / n.d. / n.d. / n.d. / n.d. / n.d.,n.d.,1/18 (2.29)
L29A+S31E+I51M+D62G+G103V+S107Q,n.d. / n.d. / n.d. / n.d. / n.d. / n.d.,n.d.,0/18
T28M+S31W+F59Q+G61I,n.d. / n.d. / 2.35 / n.d. / n.d. / 2.07,2.21,0/18
G26D+S31Q+D54Q+R56D+G61S+T104F,n.d. / n.d. / n.d. / n.d. / n.d. / n.d.,n.d.,0/18
F27P+S31E+S53V+R56H+G103V+S107Q,-0.17 / 0.48 / 1.01 / 0.01 / 0.04 / 0.12,0.25,0/18
G61K+A102G,2.71 / 2.26 / n.d. / 2.82 / n.d. / n.d.,2.59,0/18
N30D+R56I+F105A+D106L,n.d. / n.d. / n.d. / n.d. / n.d. / n.d.,n.d.,0/18
N30D+S53M+G55F+R100Q+F105A+D106L,n.d. / n.d. / n.d. / n.d. / n.d. / n.d.,n.d.,0/18
F27Y+T28D+Y60H+T104W+F105H+D106N,n.d. / n.d. / n.d. / n.d. / n.d. / n.d.,n.d.,0/18
S31D+Y32K+G33W+I34W+Y52I+F59Q+G61I,n.d. / n.d. / n.d. / n.d. / n.d. / n.d.,n.d.,0/18
G61P+A102G+S107E,n.d. / n.d. / n.d. / n.d. / n.d. / n.d.,n.d.,0/18
S31D+G33Q+Y60A+G103L+D106I,n.d. / n.d. / n.d. / n.d. / n.d. / n.d.,n.d.,0/18
G61D+R100Q+A101L+T104M+D106G,n.d. / 1.04 / n.d. / n.d. / n.d. / n.d.,1.04,0/18
F27L+N30D+R57Y+F105A+D106L,n.d. / n.d. / n.d. / n.d. / n.d. / n.d.,n.d.,0/18
G26A+S53A+G55D+R100A+F105N+D106K,n.d. / n.d. / n.d. / n.d. / n.d. / n.d.,n.d.,0/18
S31D+F59Q+Y60L+G61I,n.d. / n.d. / n.d. / n.d. / n.d. / n.d.,n.d.,0/18
L29M+S31D+G103L+D106I,n.d. / n.d. / n.d. / n.d. / n.d. / n.d.,n.d.,0/18
T28D+Y32D+I51Y+T104W+D106N,n.d. / n.d. / n.d. / n.d. / n.d. / n.d.,n.d.,0/18
S31Q+G55H+G61S+T104F,n.d. / n.d. / n.d. / n.d. / n.d. / n.d.,n.d.,0/18
T28R+S31A+T58E+Y60L+G61R+R100Q+A101L+G103E,n.d. / n.d. / n.d. / n.d. / n.d. / n.d.,n.d.,0/18
F27P+S53A+G99D+F105N+D106K,n.d. / n.d. / n.d. / n.d. / n.d. / n.d.,n.d.,0/18
S53A+F105I+D106K,n.d. / n.d. / n.d. / n.d. / n.d. / n.d.,n.d.,0/18

The closing 3 entries, repeated:

changes,"log10 Kd, replicates","mean, log10 nM",empty controls
T28R+S31A+T58E+Y60L+G61R+R100Q+A101L+G103E,n.d. / n.d. / n.d. / n.d. / n.d. / n.d.,n.d.,0/18
F27P+S53A+G99D+F105N+D106K,n.d. / n.d. / n.d. / n.d. / n.d. / n.d.,n.d.,0/18
S53A+F105I+D106K,n.d. / n.d. / n.d. / n.d. / n.d. / n.d.,n.d.,0/18

Of ten entries with the parent sequence, four were seen in most replicates (averages 0.34 to 2.37), three in one and three in none, so single entries are noisy.
In the paper, a design with two or fewer of six values counts as a poor binder.
A sequence measured in both rounds can read differently, since the two assays cover different ranges.
Empty control strains, which show no peptide, gave a signal in 1% of pairings with all heavy chain designs; the median was 2.08 and 95% of these signals were weaker than 0.84. No background was subtracted. The control count says in how many pairings with the empty strains this scFv gave a signal, with their mean in brackets.